From patent publication US20100009907A1, “Glucagon-Like Peptides and Uses Thereof” (AMYLIN PHARMACEUTICALS, INC., priority 2006, published 2010)

Key:
[1] = molecular target: T1, RINm5f cells expressing endogenous GLP-1, calcitonin, and GIP receptors (Rattus norvegicus, UniProt P32301); experiment: GLP/GIP/CT cAMP (RIN) assay; type: cell-based
T1 construct: RINm5f cells expressing endogenous GLP-1, calcitonin, and GIP receptors; endogenous in cells; host or cells: RINm5f cells
T1 sequence (P32301 22-463): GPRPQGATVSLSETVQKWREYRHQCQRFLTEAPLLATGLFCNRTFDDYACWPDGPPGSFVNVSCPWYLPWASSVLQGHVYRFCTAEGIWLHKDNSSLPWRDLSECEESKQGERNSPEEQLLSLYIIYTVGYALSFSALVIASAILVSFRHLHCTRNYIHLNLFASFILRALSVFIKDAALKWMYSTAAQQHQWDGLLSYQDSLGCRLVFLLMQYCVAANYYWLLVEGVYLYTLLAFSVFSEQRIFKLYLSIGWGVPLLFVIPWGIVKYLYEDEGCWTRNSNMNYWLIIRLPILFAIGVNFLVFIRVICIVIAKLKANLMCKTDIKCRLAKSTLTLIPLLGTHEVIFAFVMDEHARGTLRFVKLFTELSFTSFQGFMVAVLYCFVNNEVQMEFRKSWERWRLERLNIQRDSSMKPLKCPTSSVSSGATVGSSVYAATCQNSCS
Experimental: In addition, receptor binding can be measured using cells prepared from confluent cultures of RINm5f cells expressing endogenous GLP-1, calcitonin, and GIP receptors. Cells, and peptide or buffer solution are combined in 384-well plates. After a 30-minute incubation at room temperature in air, cAMP content is measured as recommended in the Perkin-Elmer AlphaScreen kit instructions.
(§1) Cells, and peptide or buffer solutions are combined in 384-well plates and incubated at room temperature in air for 30-minutes. cAMP content can then be measured according to recommendations in the Perkin-Elmer AlphaScreen™ kit instructions using the Perkin Elmer Fusion fluorimeter and data are analyzed using XLfit software (IDBS).

[2] = molecular target: T2, rat thyroid carcinoma 6-23 clone 6 cells expressing endogenous GLP-1 receptors (Rattus norvegicus, UniProt P32301); experiment: GLP-1 cAMP (6-23) cyclase assay; type: cell-based
T2 construct: rat thyroid carcinoma 6-23 clone 6 cells or RINm5F insulinoma cells expressing endogenous GLP-1 receptors; endogenous in cells; host or cells: rat thyroid carcinoma 6-23 clone 6 cells
T2 sequence (P32301 22-463): T1 sequence (P32301 22-463)
Experimental: as §1

[3] = Acute food intake assay (FI Assay); type: in vivo, NIH/Swiss mice; details: 1000 μg/kg intraperitoneal, relative to vehicle
Experimental: The effect of various test peptides on food intake is investigated using an acute food intake assay. This assay measures food consumption in lean, group-housed, overnight-fasted NIH/Swiss mice. Twelve mice are housed three to a cage. […] Decreased, as well as increased, food intake is measured. Testing of the various doses of the polypeptide generates ED50s.
Female NIH/Swiss mice (8-24 weeks old) are group housed with a 12:12 hour light:dark cycle with lights on at 0600. Water and a standard pelleted mouse chow diet are available ad libitum, except as noted. Animals are fasted starting at approximately 1500 hrs, 1 day prior to experiment. The morning of the experiment, animals are divided into experimental groups.
At time=0 min, all animals are given an intraperitoneal injection of vehicle or compound in an amount ranging from about 63 to 1000 μg/kg, and immediately given a pre-weighed amount (10-15 g) of the standard chow.

SMILES	GLP/GIP/CT cAMP(RIN) EC50 [1] [nM]	EC50 [2] [nM]	Food Intake % inhibition 30 min ([3]; 30 min) [%]	Food Intake % inhibition 60 min ([3]; 60 min) [%]	Food Intake % inhibition 120 min ([3]; 120 min) [%]	Food Intake % inhibition 180 min ([3]; 180 min) [%]
CC[C@H](C)[C@H](NC(=O)[C@H](CC(C)C)NC(=O)[C@H](Cc1c[nH]c2ccccc12)NC(=O)[C@H](CCC(=O)O)NC(=O)[C@@H](NC(=O)[C@H](Cc1ccccc1)NC(=O)[C@H](CCC(=O)O)NC(=O)[C@H](CCCCN)NC(=O)[C@H](C)NC(=O)[C@H](C)NC(=O)[C@H](CCCCN)NC(=O)[C@H](CCC(=O)O)NC(=O)[C@H](CCC(=O)O)NC(=O)[C@H](CC(C)C)NC(=O)[C@H](Cc1ccc(O)cc1)NC(=O)[C@H](CCC(=O)O)NC(=O)[C@@H](NC(=O)[C@@H](NC(=O)[C@H](CC(=O)O)NC(=O)[C@H](CC(N)=O)NC(=O)[C@@H](NC(=O)[C@H](Cc1ccc(O)cc1)NC(=O)[C@@H](NC(=O)CNC(=O)[C@H](CCC(=O)O)NC(=O)[C@@H](C)NC(=O)[C@@H](N)Cc1c[nH]cn1)[C@@H](C)O)[C@@H](C)O)C(C)C)[C@@H](C)O)[C@@H](C)CC)C(=O)N[C@@H](CCCCN)C(=O)NCC(=O)N[C@@H](CCCCN)C(=O)N1CCC[C@H]1C(=O)N[C@@H](CCCCN)C(=O)N[C@@H](CCCCN)C(=O)N[C@H](C(=O)N[C@@H](CCCNC(=N)N)C(=O)N[C@@H](Cc1ccc(O)cc1)C(=O)N[C@@H](CO)C(N)=O)[C@@H](C)CC [compound 23]	0.22	–	–	–	–	–
CC[C@H](C)[C@H](NC(=O)[C@H](CC(C)C)NC(=O)[C@H](Cc1c[nH]c2ccccc12)NC(=O)[C@H](CCC(=O)O)NC(=O)[C@@H](NC(=O)[C@H](Cc1ccccc1)NC(=O)[C@H](CCC(=O)O)NC(=O)[C@H](CCCCN)NC(=O)[C@H](C)NC(=O)[C@H](C)NC(=O)[C@H](CCCCN)NC(=O)[C@H](CCC(=O)O)NC(=O)[C@H](CCC(=O)O)NC(=O)[C@H](CC(C)C)NC(=O)[C@H](Cc1ccc(O)cc1)NC(=O)[C@H](CCC(=O)O)NC(=O)[C@@H](NC(=O)[C@@H](NC(=O)[C@H](CC(=O)O)NC(=O)[C@H](CC(N)=O)NC(=O)[C@@H](NC(=O)[C@H](Cc1ccc(O)cc1)NC(=O)[C@@H](NC(=O)CNC(=O)[C@H](CCC(=O)O)NC(=O)[C@@H](C)NC(=O)[C@@H](N)Cc1c[nH]cn1)[C@@H](C)O)[C@@H](C)O)C(C)C)[C@@H](C)O)[C@@H](C)CC)C(N)=O [compound 43]	–	0.14	–	–	–	–
CC[C@H](C)[C@H](NC(=O)[C@H](Cc1ccccc1)NC(=O)[C@H](CCC(=O)O)NC(=O)[C@H](CCCCN)NC(=O)[C@H](C)NC(=O)[C@H](C)NC(=O)[C@H](CCCCN)NC(=O)[C@H](CCC(=O)O)NC(=O)[C@H](CCC(=O)O)NC(=O)[C@H](CC(C)C)NC(=O)[C@H](Cc1ccc(O)cc1)NC(=O)[C@H](CCC(=O)O)NC(=O)[C@@H](NC(=O)[C@@H](NC(=O)[C@H](CC(=O)O)NC(=O)[C@H](CC(N)=O)NC(=O)[C@@H](NC(=O)[C@H](Cc1ccc(O)cc1)NC(=O)[C@@H](NC(=O)CNC(=O)[C@H](CCC(=O)O)NC(=O)[C@@H](C)NC(=O)[C@@H](N)Cc1c[nH]cn1)[C@@H](C)O)[C@@H](C)O)C(C)C)[C@@H](C)O)C(=O)N[C@@H](CCC(=O)O)C(=O)N[C@@H](Cc1c[nH]c2ccccc12)C(=O)N[C@@H](CC(C)C)C(N)=O [compound 45]	–	34	–	–	–	–
CC[C@H](NC(=O)[C@@H](N)Cc1c[nH]cn1)C(=O)N[C@@H](CCC(=O)O)C(=O)NCC(=O)N[C@H](C(=O)N[C@@H](Cc1ccc(O)cc1)C(=O)N[C@H](C(=O)N[C@@H](CC(N)=O)C(=O)N[C@@H](CC(=O)O)C(=O)N[C@H](C(=O)N[C@H](C(=O)N[C@@H](CCC(N)=O)C(=O)N[C@@H](Cc1ccccc1)C(=O)N[C@@H](CC(C)C)C(=O)N[C@@H](CCC(=O)O)C(=O)N[C@@H](CCC(=O)O)C(=O)N[C@@H](CCCCN)C(=O)N[C@@H](C)C(=O)N[C@@H](C)C(=O)N[C@@H](CCCCN)C(=O)N[C@@H](CCC(=O)O)C(=O)N[C@@H](Cc1ccccc1)C(=O)N[C@H](C(=O)N[C@@H](CC(=O)O)C(=O)N[C@@H](Cc1c[nH]c2ccccc12)C(=O)N[C@@H](CC(C)C)C(=O)N[C@H](C(=O)N[C@@H](CCCCN)C(=O)NCC(=O)N[C@@H](CCCCN)C(=O)N1CCC[C@H]1C(=O)N[C@@H](CCCCN)C(=O)N[C@@H](CCCCN)C(=O)N[C@@H](CCC(N)=O)C(=O)N[C@@H](CCCNC(=N)N)C(=O)N[C@@H](CC(C)C)C(=O)N[C@@H](CO)C(N)=O)[C@@H](C)CC)[C@@H](C)CC)[C@@H](C)O)C(C)C)[C@@H](C)O)[C@@H](C)O [compound 53]	0.146	0.12	40	44	50	34
